Experimental data published in patent publication US20250270173A1, “PYRIDINE DERIVATIVES FOR TREATING PSYCHIATRIC DISORDERS” (GILGAMESH PHARMACEUTICALS, INC., priority 2022, published 2025).

Amino acid sequences for entries named in this document (tags omitted). Residues count along the entry.
UniProt P28335, 33-458 limits assumed: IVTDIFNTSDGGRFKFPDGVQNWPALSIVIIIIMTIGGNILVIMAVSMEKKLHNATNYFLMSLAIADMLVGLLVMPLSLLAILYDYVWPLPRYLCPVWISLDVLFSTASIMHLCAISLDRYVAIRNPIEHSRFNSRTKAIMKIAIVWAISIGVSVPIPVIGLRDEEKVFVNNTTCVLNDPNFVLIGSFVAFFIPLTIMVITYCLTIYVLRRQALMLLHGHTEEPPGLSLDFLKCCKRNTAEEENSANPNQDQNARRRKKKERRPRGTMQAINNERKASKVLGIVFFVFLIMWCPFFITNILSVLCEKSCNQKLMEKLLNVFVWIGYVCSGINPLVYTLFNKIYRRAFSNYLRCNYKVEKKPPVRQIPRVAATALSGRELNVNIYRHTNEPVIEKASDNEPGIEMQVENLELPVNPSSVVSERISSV

Biological target: human 5-HT2C receptor (Homo sapiens (Human), UniProt P28335)
Assay: FLIPR Ca2+ flux functional assay at 5-HT2C (Eurofins DiscoverX)
Type: cell-based
Conditions: for 5-HT2C % Act @ Max Conc.: at max concentration; for EC50: read-out: 5-HT2C EC50

| SMILES | 5-HT2C % Act @ Max Conc. [%] | EC50 [nM] |
| --- | --- | --- |
| COc1cc(CCCCC(F)(F)F)c(OC)cc1CCN | 82.10 | 6.41 |
| COc1cc(CCCCF)c(OC)cc1CCN | 99.28 | 0.662 |
